Source: PubChem BioAssay (NCATS)
Where “and” joins values, the source holds several entries; their conditions need not be identical. Equal entries are not always repeated. The entries are a selection whose mix differs from that of the whole data set. Results filed as inconclusive are left out. Calls of active or inactive are those of the source. Unless noted, calls follow the shape of the dose curve; as a rule, active = well fitted curve in the direction sought with a large enough effect; inconclusive = small, poorly fitted or top-dose-only effect, or another doubt; inactive = no such curve, though single readings can be large; an effect the other way counts as inactive or inconclusive.

Chains of the proteins cited; added tags and fusions are not shown.
UniProt O94782, whole entry, looked up: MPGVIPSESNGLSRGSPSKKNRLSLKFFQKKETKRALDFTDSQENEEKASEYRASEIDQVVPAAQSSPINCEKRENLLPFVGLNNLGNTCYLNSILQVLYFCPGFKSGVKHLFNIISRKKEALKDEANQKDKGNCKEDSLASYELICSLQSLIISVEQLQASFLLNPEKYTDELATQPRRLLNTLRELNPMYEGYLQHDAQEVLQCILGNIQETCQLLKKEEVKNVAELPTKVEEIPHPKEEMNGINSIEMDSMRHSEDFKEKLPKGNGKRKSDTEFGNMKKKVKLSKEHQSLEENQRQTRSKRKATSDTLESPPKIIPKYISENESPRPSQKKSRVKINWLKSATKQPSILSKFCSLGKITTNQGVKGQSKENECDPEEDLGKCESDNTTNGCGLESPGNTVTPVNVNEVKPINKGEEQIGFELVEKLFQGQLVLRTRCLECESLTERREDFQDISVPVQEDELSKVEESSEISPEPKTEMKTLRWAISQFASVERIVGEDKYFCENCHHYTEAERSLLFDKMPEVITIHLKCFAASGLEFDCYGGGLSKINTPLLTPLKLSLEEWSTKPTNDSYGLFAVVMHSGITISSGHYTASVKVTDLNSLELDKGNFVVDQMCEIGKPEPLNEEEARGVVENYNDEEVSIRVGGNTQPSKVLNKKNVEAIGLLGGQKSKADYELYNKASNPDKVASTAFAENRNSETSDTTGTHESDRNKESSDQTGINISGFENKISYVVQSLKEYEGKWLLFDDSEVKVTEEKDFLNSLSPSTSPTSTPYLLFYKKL
UniProt P21728, whole entry: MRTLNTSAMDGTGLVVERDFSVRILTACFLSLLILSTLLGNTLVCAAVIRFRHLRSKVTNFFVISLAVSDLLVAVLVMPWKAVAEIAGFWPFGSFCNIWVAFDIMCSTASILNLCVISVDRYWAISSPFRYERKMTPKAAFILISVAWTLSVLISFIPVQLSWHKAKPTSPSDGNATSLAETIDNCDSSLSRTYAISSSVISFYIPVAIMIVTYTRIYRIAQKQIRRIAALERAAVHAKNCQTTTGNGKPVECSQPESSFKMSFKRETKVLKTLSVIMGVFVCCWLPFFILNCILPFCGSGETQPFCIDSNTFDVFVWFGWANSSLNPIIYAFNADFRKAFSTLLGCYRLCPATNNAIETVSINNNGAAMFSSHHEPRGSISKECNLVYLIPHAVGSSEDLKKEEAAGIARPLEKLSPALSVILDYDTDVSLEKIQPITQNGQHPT
UniProt Q96QE3, whole entry: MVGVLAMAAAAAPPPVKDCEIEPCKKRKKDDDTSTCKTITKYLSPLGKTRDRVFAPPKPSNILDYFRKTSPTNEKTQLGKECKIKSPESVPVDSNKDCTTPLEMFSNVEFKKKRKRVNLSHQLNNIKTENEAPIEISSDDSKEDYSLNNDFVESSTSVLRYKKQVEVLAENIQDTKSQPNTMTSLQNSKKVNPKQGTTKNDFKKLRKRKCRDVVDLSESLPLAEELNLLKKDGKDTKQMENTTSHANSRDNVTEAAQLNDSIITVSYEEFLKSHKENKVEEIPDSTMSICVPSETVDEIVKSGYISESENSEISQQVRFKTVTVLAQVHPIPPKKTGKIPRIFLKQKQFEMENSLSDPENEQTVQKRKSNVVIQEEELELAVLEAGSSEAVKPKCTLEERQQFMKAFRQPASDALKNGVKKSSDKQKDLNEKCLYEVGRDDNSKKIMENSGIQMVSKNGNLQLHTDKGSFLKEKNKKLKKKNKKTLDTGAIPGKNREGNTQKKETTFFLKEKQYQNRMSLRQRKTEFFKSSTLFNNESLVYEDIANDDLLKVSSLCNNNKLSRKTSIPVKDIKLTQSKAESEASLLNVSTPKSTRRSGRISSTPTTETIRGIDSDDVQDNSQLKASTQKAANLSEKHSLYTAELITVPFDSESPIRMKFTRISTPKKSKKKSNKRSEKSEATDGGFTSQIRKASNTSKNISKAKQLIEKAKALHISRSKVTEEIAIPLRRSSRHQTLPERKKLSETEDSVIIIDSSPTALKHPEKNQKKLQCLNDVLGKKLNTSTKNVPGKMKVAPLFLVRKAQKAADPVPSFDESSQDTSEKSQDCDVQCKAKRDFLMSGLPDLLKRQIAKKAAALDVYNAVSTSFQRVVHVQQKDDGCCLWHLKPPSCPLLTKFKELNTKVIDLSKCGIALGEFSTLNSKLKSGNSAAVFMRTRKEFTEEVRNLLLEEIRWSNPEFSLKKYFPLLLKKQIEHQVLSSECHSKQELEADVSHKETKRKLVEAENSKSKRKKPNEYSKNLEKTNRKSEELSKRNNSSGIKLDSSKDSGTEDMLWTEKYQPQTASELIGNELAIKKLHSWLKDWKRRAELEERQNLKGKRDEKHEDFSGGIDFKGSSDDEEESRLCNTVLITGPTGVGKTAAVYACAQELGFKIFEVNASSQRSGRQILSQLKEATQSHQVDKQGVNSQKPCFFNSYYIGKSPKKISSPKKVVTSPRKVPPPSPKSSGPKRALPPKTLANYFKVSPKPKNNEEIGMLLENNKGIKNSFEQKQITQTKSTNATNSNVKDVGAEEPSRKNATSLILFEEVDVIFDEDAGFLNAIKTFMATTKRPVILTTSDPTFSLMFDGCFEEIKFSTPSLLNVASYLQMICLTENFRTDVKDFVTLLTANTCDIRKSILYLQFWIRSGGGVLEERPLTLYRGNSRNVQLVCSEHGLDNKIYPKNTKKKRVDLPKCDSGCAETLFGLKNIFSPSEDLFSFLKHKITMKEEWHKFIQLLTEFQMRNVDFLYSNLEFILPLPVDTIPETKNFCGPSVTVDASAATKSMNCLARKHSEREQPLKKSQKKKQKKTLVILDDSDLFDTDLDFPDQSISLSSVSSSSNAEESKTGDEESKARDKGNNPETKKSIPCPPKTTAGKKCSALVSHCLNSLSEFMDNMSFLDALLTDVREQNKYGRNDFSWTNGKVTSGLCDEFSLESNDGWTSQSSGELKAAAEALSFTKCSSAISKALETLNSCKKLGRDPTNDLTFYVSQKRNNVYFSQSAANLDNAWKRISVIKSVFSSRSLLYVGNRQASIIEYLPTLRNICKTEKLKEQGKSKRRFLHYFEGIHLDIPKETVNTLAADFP
UniProt P51570, whole entry: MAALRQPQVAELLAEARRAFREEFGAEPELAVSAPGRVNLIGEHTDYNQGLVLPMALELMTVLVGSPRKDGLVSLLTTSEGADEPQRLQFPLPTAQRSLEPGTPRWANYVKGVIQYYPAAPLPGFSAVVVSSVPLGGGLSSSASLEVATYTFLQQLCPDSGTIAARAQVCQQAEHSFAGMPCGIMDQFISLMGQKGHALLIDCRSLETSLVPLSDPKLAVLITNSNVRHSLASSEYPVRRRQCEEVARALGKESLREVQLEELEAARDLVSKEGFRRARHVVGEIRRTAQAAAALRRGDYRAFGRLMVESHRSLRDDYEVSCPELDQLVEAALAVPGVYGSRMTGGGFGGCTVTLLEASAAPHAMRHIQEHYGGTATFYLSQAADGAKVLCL

Assays:
[1] = biological target: Ubiquitin carboxyl-terminal hydrolase 1 (Homo sapiens) (UniProt O94782); experiment: Inhibitors of USP1/UAF1: Pilot qHTS (AID 504865); also: nearly all actives have a fitted effect of over 35% in size; also: potency is read from the fitted curve at half-maximal effect;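 as to activity change, negative = inhibition: rhodamine fluorescence freed from ubiquitin-rhodamine substrate followed over time; top concentration of the series differs between compounds; % is scaled to controls: 0 for no effect and ±100 for the full control effect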
[2] = biological target: D(1A) dopamine receptor (Homo sapiens) (UniProt P21728); experiment: HTS Assay for Allosteric Agonists of the Human D1 Dopamine Receptor: Primary Screen for Antagonists (AID 488983); settings: D1 receptor cell assay, antagonist mode, qHTS titration; at 41.8 µM (top of the series);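 also: calcium flux response to an EC80 dopamine challenge measured with no-wash dye; % is scaled to controls: 0 for no effect and ±100 for the full control effect; nearly all actives have a fitted effect of over 65% in size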
[3] = Validation screen for small molecules that induce genotoxicity in human embryonic kidney (HEK293T) cells expressing luciferase-tagged ELG1 (AID 493106); settings: luminescence; at 46.1 µM (top of the series); also: 0% is about no effect
Method in brief: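 qHTS format; 2,000 HEK293T ELG1-luc cells/well; 23 nL compound via pin tool; 16 hr, 37 °C/5% CO2; ONE-Glo, 30 min RT; luminescence read.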

[4] = biological target: ATPase family AAA domain-containing protein 5 (Homo sapiens) (UniProt Q96QE3); experiment: Validation screen for small molecules that inhibit ELG1-dependent DNA repair in human embryonic kidney (HEK293T) cells expressing luciferase-tagged ELG1 (AID 493107); settings: HEK293T ELG1-luciferase level, luminescence, 5-fluorouridine co-treatment, 16 h; at 46.1 µM (top of the series);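 also: cells co-treated with the DNA-damaging agent 5-fluorouridine alongside compound; % is scaled to controls: 0 for no effect and ±100 for the full control effect; inhibitors lower the ELG1-luciferase luminescence signal; nearly all actives have a fitted effect of over 70% in size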
Method in brief: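 ELG1-luciferase HEK293T reporter; 5-fluorouridine + compound/DMSO, 16 hr, 37 °C, 5% CO2; ONE-Glo 30 min RT; luminescence read, qHTS format.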

[5] = Nrf2 qHTS screen for inhibitors: Validation (AID 493153; active = well fitted inhibition curve with a large enough effect in the main read-out, with a control signal flat, not every such curve was filed as active; also: % of control where 0% means no effect); settings: A549 ARE-Fluc reporter, luciferase luminescence, 18-24 h; at 46.1 µM (top of the series)
Method in brief: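 Concentration-response test in A549 ARE_Fluc reporter cells (5% FBS OPTI-MEM), compound exposure 18-24 h at 37°C, 5% CO2. Cell viability measured first by CellTiter-Fluor fluorescence; ARE-driven luciferase luminescence then measured as Nrf2 activity.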

[6] = qHTS for Inhibitors of Cell Surface uPA Generation: Validation Assay (AID 493164); settings: mouse cells, plasminogen activation; at 38.3 µM (top of the series);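 also: RAW 264.7 macrophage cells exposed to compound for 18 h; 0% is about no effect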
Excerpt: NIH Chemical Genomics Center [NCGC]
NIH Molecular Libraries Probe Centers Network [MLPCN]
Assay Submitter (PI): Thomas Bugge
The overall objective of this project is to perform a quantitative high throughput screen (qHTS) to identify novel compounds that inhibit the generation of cell surface urokinase activity. The urokinase plasminogen activator (uPA) is one of the two primary endogenous systems that mediate plasminogen activation into plasmin. Members of this system, including uPA and its receptor (uPAR), are overexpressed in several malignant tumors. This system plays a major role in adhesion, migration, invasion and metastasis of cancer cells. Small molecule inhibitors of the uPA system will serve as probes to understand the molecular mechanisms of the uPA cascade and better understanding the microenvironmental circumstances that facilitate the activation of plasminogen by uPA, and finally may provide novel candidate agents for anticancer drug therapy.
[…] […] Upon inhibition of the uPA activation cascade, the subsequent cell surface uPA activity-dependent translocation of LF into the cytoplasm is inhibited. ATP-Lite is used to measure intracellular ATP concentrations, which remain increased if LF entry into the cytoplasm is inhibited. This validation assay was performed using a small set of validation compounds. […]
7.Reading plates by ViewLux with an exposure length of 5 seconds.

[7] = biological target: Galactokinase (Homo sapiens) (UniProt P51570); experiment: qHTS Validation Assay for Inhibitors of Human Galactokinase (GALK) (AID 493189); settings: purified human GALK enzyme activity, qHTS 7-point titration; at 57.5 µM (top of the series); also: 0% is about no effect
Method in brief: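 GALK (5 nM) with 35 uM ATP and 100 uM galactose in HEPES pH 8.0 with MgCl2, NaCl, DTT and BSA. Reaction ran 1 h at room temperature. Residual ATP read by Kinase-Glo Plus luminescence.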

[8] = Validation screen for small molecules that induce DNA re-replication in SW480 colon adenocarcinoma cells (AID 504364); settings: DNA re-replication phenotype (high-content imaging); at 46.1 µM (top of the series); also: 0% is about no effect
Method in brief: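 Read-out: total Hoechst intensity of nuclei by fluorescence scanning imager; hits raise the fraction of nuclei with elevated DNA content. Cells received compound for 48 hr at 37 C before a 40 min stain.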

[9] = Inducers of the Endoplasmic Reticulum Stress Response (ERSR) in human glioma: Validation (AID 504836); settings: human glioma cells, ER stress response reporter; at 38.3 µM (top of the series); also: 0% is about no effect
Method in brief: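 Stably transfected U87-MG glioma cells carrying a GRP78-based luciferase sensor; 16 h compound incubation. Luminescence end-point read 10 min after Bright-Glo addition at room temperature.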

[10] = qHTS for Inhibitors of ATXN expression: Validation of Cytotoxic Assay (AID 588349); settings: cytotoxicity counter-screen for ATXN expression inhibitors, cell viability; at 57.1 µM (top of the series); also: % is scaled to controls: 0 for no effect and ±100 for the full control effect
Method in brief: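 Cytotoxicity counter-screen: HEK293 cells exposed to compound titrations, 72 hr, 37 degrees C. Read-out is intracellular ATP (CellTiter Glo luminescence) as a viability measure.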

**Q.** Which Potency [1] does the source give for CC(C)OP(=O)(F)OC(C)C here?
**A.** Its Potency is “inactive”.

**Q.** Which Potency [1] does the source give for CCN(CCCl)Cc1ccccc1C here?
**A.** The Potency was “inactive”.

**Q.** Which results are given for N#[O+].[C-]#N.[C-]#N.[C-]#N.[C-]#N.[C-]#N.[Fe+2].[Na+].[Na+]?
**A.** activity change, negative = inhibition [2]: inactive: 2.26%; activity change, positive = ELG1 induction [3]: inactive: -8.25%; activity change, negative = decrease [4]: inactive: 6.52%; activity change, negative = inhibition [5]: inactive: -21.1%; activity change [6]: inactive: 0.633%; activity change, negative = inhibition [7]: inactive: -4.15%; activity (re-replication induction) [8]: inactive: -6.99%; activation [9]: inactive: -0.556%; Potency [1]: active: 22.4 µM and active: 20 µM; activity change, negative = cytotoxicity [10]: inactive: -16.1%

**Q.** Which Potency [1] does the source give for O=[N+]([O-])c1cccc([N+](=O)[O-])c1 here?
**A.** Its Potency is “inactive”.

**Q.** With CN(C)CCS as the compound, how does the Potency [1] read?
**A.** The Potency was “inactive”.

**Q.** With OCCSCCO as the compound, how does the Potency [1] read?
**A.** Its Potency is “inactive”.

**Q.** For C/C1=C2N=C(/C=C3N=C(/C(C)=C4\[N-][C@@](C)([C@H]5N=C1[C@@](C)(CCC(=O)NC[C@H](C)OP(=O)([O-])O[C@@H]1[C@H](O)[C@H](n6cnc7cc(C)c(C)cc76)O[C@@H]1CO)[C@@H]5CC(N)=O)[C@](C)(CC(N)=O)[C@H]4CCC(N)=O)[C@@](C)(CC(N)=O)[C@@H]\3CCC(N)=O)C(C)(C)[C@@H]/2CCC(N)=O.[C-]#N.[Co+3], which Potency [1] is on record?
**A.** The Potency was “inactive”.
